Yeast mating assay B: variants of the scFv Ab-14

Target peptide (SARS-CoV-2 spike, HR2 region): PDVDLGDISGINAS

Each scFv is VH, a 15-residue (Gly4Ser)3 linker, VL, as in the parent Ab-14, and differs from it in the CDRs of the light chain only.
VH: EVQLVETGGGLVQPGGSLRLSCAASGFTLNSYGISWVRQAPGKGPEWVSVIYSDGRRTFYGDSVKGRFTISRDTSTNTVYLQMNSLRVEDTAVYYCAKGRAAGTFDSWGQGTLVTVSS
VL: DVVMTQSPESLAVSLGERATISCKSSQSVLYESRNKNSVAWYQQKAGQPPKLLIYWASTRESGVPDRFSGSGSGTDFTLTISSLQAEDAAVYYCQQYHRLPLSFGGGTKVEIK

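This is the validation round: designs drawn from the data on random variants, tested in the same kind of assay. Their group label is 14L_GP_HC (GP: Gaussian process model; HC: hill climbing; a sequence that several methods proposed may carry one label only). The scFvs were displayed on barcoded MATa yeast, the peptide on MATalpha yeast. The frequency of each diploid, read from paired DNA barcodes, reflects how well the two displayed proteins bind. Each replicate has its own calibration line, from reference interactions of the BCL2 family. The assay was run in six technical replicates.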

Changes read parent residue, position, new residue, counted from the first residue of the VL shown. Affinities are written as log10 Kd with Kd in nM; a lower number is a better binder. A mean of the replicates is given; it leaves out those without a signal. A pair that was not seen in that replicate is written "nd"; this usually means weak binding, but a binder can also be missed. In the paper, a design with two or fewer of six values counts as a poor binder. Of ten entries with the parent sequence, four were seen in most replicates (averages 0.34 to 2.37), three in one and three in none, so single entries are noisy. Values of this round are not directly comparable with the first-round values of the same sequences. Three control strains display no target. For all light chain designs, 4% of the pairings with them gave a signal, with a median of 2.64 and one signal in twenty below 1.59, so weak values seen in few replicates may be background. Also given: how often the same scFv was detected with the empty control strains, with their mean in brackets.

changes | log10 Kd (nM) by replicate | mean log10 Kd (nM) | empty controls
S26Q V29Q L30E W56Q S62D | -0.02 0.03 0.04 -0.01 0.00 0.13 | 0.03 | 1 of 18 (3.43)
S25Q S26Y Q27P V29Y W56Q | 0.47 -0.16 0.06 0.25 0.20 0.65 | 0.24 | 0 of 18
S25E V29W L30I S38N W56G | -0.25 -0.32 -0.32 -0.48 -0.47 -0.32 | -0.36 | 1 of 18 (3.29)
S25L R34G N35T W56N T59S | 0.19 0.11 0.09 -0.14 -0.04 0.24 | 0.08 | 1 of 18 (3.53)
S26L V29H W56Q S62D H98G | -0.01 -0.22 -0.05 -0.21 -0.06 0.05 | -0.08 | 2 of 18 (3.57)
S25V S26L L30H S33G W56H S62D | 0.81 0.58 0.90 1.22 1.02 0.71 | 0.87 | 0 of 18
Q27I V29Y R34E N37L W56E T59Q | 0.77 nd 1.95 nd 2.56 0.91 | 1.55 | 0 of 18
S25M V29W Y31M S33W W56D T59L | 0.13 -0.12 0.02 -0.05 0.08 0.10 | 0.03 | 0 of 18
Q27W R34G W56N S62D | 0.57 0.33 0.32 0.24 0.69 0.57 | 0.45 | 2 of 18 (3.07)
Q27I V29Y R34E W56Q T59Q | 0.85 0.49 0.80 0.85 0.64 0.62 | 0.71 | 2 of 18 (3.83)
K24H S25L Q27W S28V W56N A57G | 0.02 0.03 -0.07 -0.25 -0.26 -0.04 | -0.10 | 2 of 18 (2.69)
Q27I V29Y W56A S62L | 0.45 -0.33 -0.14 0.37 -0.03 0.28 | 0.10 | 0 of 18
S25L S26E V29Q L30N W56N | -0.06 -0.13 -0.14 -0.31 -0.16 0.13 | -0.11 | 1 of 18 (3.43)
S25L S26D W56H S62D Q95K | 1.02 1.92 1.78 1.70 0.99 1.37 | 1.46 | 0 of 18
K24H S25L Q27W S28V W56N S62V | 0.33 0.16 -0.27 0.19 0.52 0.35 | 0.21 | 1 of 18 (2.08)
S25V S28E Y31F W56D | -0.02 -0.26 -0.11 -0.30 -0.29 0.09 | -0.15 | 0 of 18
V29W L30D W56G | -0.20 -0.32 -0.41 -0.47 -0.33 -0.22 | -0.32 | 3 of 18 (2.64)
V29E Y31Q W56D H98W | 0.14 0.04 0.06 0.11 0.10 0.02 | 0.08 | 1 of 18 (2.48)
S25Q S38A W56D Q96L R99W | -0.11 -0.39 -0.50 -0.20 -0.34 -0.18 | -0.29 | 0 of 18
S25M V29W Y31G S33Q W56D A57I | -0.10 -0.13 -0.14 -0.19 -0.27 0.04 | -0.13 | 1 of 18 (2.39)
S25F K36L W56N Q96W | 1.45 1.39 1.26 1.51 1.23 1.86 | 1.45 | 3 of 18 (2.99)
S25Q Y31G R34V W56D | 0.66 0.24 0.51 0.06 0.72 0.48 | 0.44 | 1 of 18 (1.34)
S25L S26E S28L W56G | 1.22 0.68 1.01 0.99 1.26 1.07 | 1.04 | 2 of 18 (3.11)
S25L S26P S28Q V29T W56S S62E | -0.27 -0.42 -0.21 -0.04 -0.16 -0.13 | -0.20 | 0 of 18
V29F K36V W56D | -0.01 -0.09 -0.25 -0.16 -0.28 -0.01 | -0.13 | 0 of 18
S25F Q27F R34H W56N E61M | 1.41 1.10 1.47 0.61 1.16 2.08 | 1.31 | 0 of 18
S25L S26P W56H Q96S | 0.20 0.21 0.00 0.01 -0.11 0.18 | 0.08 | 0 of 18
Q27F V29Y K36T W56E | 0.29 0.09 0.12 0.13 0.34 0.28 | 0.21 | 0 of 18
Q27I R34G W56E | 0.64 0.30 0.24 0.24 0.19 0.68 | 0.38 | 2 of 18 (2.97)
K24I S28G V29W W56G S62D | -0.21 -0.56 -0.78 -0.37 -0.85 -0.47 | -0.54 | 0 of 18
Q27T R34G W56H S62D | 0.88 0.79 0.59 0.43 0.63 0.99 | 0.72 | 2 of 18 (2.47)
Q27I V29E R34M W56E | 1.11 1.31 1.37 2.39 1.95 1.88 | 1.67 | 3 of 18 (2.54)
S25Q W56M A57G | 0.68 0.78 0.98 0.61 0.95 0.80 | 0.80 | 0 of 18
Q27I V29Y W56E S103M | -0.13 -0.09 -0.27 -0.36 -0.68 -0.33 | -0.31 | 0 of 18
K24A V29W W56G | -0.38 -0.51 -1.05 -0.78 -0.70 -0.37 | -0.63 | 0 of 18
S26P V29Q L30E W56H S62D | -0.04 -0.30 -0.08 -0.39 -0.15 -0.02 | -0.16 | 1 of 18 (2.34)
S25L S26D S28G V29N W56G | 1.03 0.57 0.64 0.55 0.97 1.26 | 0.84 | 1 of 18 (2.88)
Q27F R34G W56H S62D | 0.62 0.45 0.59 0.63 0.51 0.87 | 0.61 | 2 of 18 (3.10)
S25M S26Y V29W W56H S62Q | 0.52 0.31 0.20 0.34 0.21 0.47 | 0.34 | 0 of 18
S25M Q27I V29Y Y31G S33K W56E | 0.80 0.80 0.40 0.41 0.80 0.63 | 0.64 | 2 of 18 (2.09)
V29W S38A W56G S62N | 0.47 0.36 -0.03 -0.20 0.17 0.21 | 0.16 | 1 of 18 (2.60)
S25V Q27F V29Y Y31L W56S | -0.01 0.12 0.05 0.30 0.16 0.12 | 0.12 | 0 of 18
S25L S26K W56H S62D | 0.23 0.05 -0.18 -0.09 -0.04 0.21 | 0.03 | 2 of 18 (2.96)
S25L V29T E32D R34M H98K | 0.66 0.29 0.44 0.36 0.20 0.55 | 0.42 | 1 of 18 (2.76)
Q27F V29Y R34E W56E T59Q | 0.03 0.22 0.14 -0.14 0.03 0.12 | 0.07 | 0 of 18
S25L S26R V29T K36Q W56G | -0.37 -0.31 -0.62 -0.58 -0.46 -0.02 | -0.39 | 1 of 18 (2.32)
S25C S26P S28G W56G T59V | 1.91 2.43 nd 2.03 1.39 2.21 | 1.99 | 0 of 18
S26P S28G E32Q W56G | 1.77 0.87 1.31 0.87 2.06 1.19 | 1.35 | 0 of 18
S25L S26W W56H S62D | 2.37 1.64 2.33 0.84 0.38 2.17 | 1.62 | 0 of 18

For reference, 7 entries of the list once more:

changes	log10 Kd (nM) by replicate	mean log10 Kd (nM)	empty controls
S25L S26D W56H S62D Q95K	1.02 1.92 1.78 1.70 0.99 1.37	1.46	0 of 18
S25V S26L L30H S33G W56H S62D	0.81 0.58 0.90 1.22 1.02 0.71	0.87	0 of 18
Q27I V29E R34M W56E	1.11 1.31 1.37 2.39 1.95 1.88	1.67	3 of 18 (2.54)
S25M V29W Y31G S33Q W56D A57I	-0.10 -0.13 -0.14 -0.19 -0.27 0.04	-0.13	1 of 18 (2.39)
Q27I R34G W56E	0.64 0.30 0.24 0.24 0.19 0.68	0.38	2 of 18 (2.97)
K24I S28G V29W W56G S62D	-0.21 -0.56 -0.78 -0.37 -0.85 -0.47	-0.54	0 of 18
S25Q Y31G R34V W56D	0.66 0.24 0.51 0.06 0.72 0.48	0.44	1 of 18 (1.34)

Source: Li et al. 2023 (doi:10.1038/s41467-023-39022-2), MIT Lincoln Laboratory and A-Alpha Bio; data file from the FLAb repository.